The values below are quoted from earlier work in US11813252B2 (dated 2023).

Sequences of proteins named here, by UniProt entry; tags and fusion partners are left off. A change or cut given only in a name is not applied to a line headed by its entry.
UniProt Q12809: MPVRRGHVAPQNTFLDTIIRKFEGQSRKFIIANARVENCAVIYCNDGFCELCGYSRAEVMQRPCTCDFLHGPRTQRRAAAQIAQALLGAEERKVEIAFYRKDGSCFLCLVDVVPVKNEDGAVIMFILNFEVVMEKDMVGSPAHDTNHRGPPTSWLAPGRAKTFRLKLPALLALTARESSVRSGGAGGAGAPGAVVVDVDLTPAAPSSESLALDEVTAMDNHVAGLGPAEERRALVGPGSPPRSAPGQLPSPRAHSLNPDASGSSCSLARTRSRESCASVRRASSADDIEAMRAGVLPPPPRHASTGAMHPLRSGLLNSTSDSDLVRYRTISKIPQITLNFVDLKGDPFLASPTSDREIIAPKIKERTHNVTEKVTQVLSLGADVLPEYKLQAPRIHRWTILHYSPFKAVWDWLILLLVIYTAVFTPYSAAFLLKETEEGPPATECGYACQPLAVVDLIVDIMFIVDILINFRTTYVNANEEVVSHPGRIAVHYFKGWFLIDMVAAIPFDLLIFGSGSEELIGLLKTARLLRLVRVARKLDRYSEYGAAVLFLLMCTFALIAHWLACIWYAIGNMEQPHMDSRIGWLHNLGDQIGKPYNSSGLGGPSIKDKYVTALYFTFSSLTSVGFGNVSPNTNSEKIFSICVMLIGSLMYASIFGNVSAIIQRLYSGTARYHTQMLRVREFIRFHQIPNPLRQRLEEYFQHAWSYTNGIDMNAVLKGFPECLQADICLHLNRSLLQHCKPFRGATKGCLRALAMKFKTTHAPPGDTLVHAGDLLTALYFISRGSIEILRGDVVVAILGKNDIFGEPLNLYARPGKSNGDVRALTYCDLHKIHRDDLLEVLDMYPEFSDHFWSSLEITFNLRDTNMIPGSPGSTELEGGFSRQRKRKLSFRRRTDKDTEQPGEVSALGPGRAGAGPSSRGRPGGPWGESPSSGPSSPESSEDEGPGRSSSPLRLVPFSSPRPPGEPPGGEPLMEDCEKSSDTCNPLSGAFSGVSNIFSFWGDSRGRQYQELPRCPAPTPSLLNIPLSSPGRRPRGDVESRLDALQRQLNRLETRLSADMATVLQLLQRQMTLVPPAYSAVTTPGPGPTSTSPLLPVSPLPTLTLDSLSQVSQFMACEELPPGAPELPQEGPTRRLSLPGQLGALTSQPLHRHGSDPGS

The target of this series is hERG K+ channel (Homo sapiens, UniProt Q12809). The following applies: CDER pharmacological review NDA 22-068, cited from earlier work.

Several values for one entry are separate records, joined by “and”; a condition that tells them apart may be missing. Equal entries are not always repeated. Where two headings read alike, the source gives them in different places.

Regarding `Cc1cn(-c2cc(NC(=O)c3ccc(C)c(Nc4nccc(-c5cccnc5)n4)c3)cc(C(F)(F)F)c2)cn1` [Nilotinib, nilotinib], the “percentage inhibition of hERG current” value was 14.9 ± 2% (0.03 μM); 43.9 ± 0.7% (0.1 μM); 70.4 ± 2.5% (0.3 μM); ~90% and 89.7 ± 1.6% (1 μM).
